miR-21 reporter: miR-21 reporter, rising signal; Potency, µM (titrated, usually from 38.3 µM), without a hit: at the highest dose reporter change, positive = more light; AID 2288; 340,000 tested, under 10 active; HeLa miR-21 FLuc reporter, luciferase, 48 h; active = well fitted rising curve with a large enough effect; inconclusive = small, poorly fitted or top-dose-only effect; inactive = no such curve, though single readings can be large or run the other way;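 note: % of control where 0% means no effect; miR-21 action dims this reporter so a rising signal means less miR-21 action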
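HeLa cells stably expressing CMV-driven firefly luciferase with a downstream miR-21 binding sequence, endogenously expressing miR-21, were treated with titrations (up to about 40uM final) for 48 hours at 37 degree Celsius. Luciferase luminescence was read after lysis.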
TDP1 cell CPT: growth inhibition of DT40 Tdp1-/-;hTDP1 cells with camptothecin (screen for TDP1 inhibitors). chicken DT40 Tdp1-/-;hTDP1 cells + 20 nM CPT, ATP luminescence, 48 h. 12% of 420,000 active. AID 686979. Potency, µM (highest dose often 46.2 µM), for inactives: at the highest dose activity change, negative = growth inhibition, usual class: inhibitors; also: potency is read from the fitted curve at half-maximal effect; % is scaled to controls: 0 for no effect and ±100 for the full control effect; nearly all actives have a fitted effect of over 55% in size
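Chicken DT40 Tdp1-/- cells complemented with human TDP1, 400 cells/well, exposed to compounds plus 20 nM camptothecin for at least 48 h at 37 C; viability read as ATP content by CellTiter-Glo luminescence.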
TDP1 cell noCPT: qHTS for Inhibitors of human tyrosyl-DNA phosphodiesterase 1 (TDP1): qHTS in cells in absence of CPT | AID 686978, 2013 | Potency, µM (top dose mostly 46.2 µM), for inactives: at the top dose activity change, negative = growth inhibition, usual class: inhibitors | 15% of 420,000 active | DT40 Tdp1-/- hTDP1 cells, no CPT, ATP luminescence, 48 h; also: potency is read from the fitted curve at half-maximal effect; % is scaled to controls: 0 for no effect and ±100 for the full control effect; nearly all actives have a fitted effect of over 55% in size
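Stably hTDP1-transfected Tdp1-null chicken DT40 cells were treated with library compounds minus camptothecin and grown for at least 48 hr at 37 °C, after which cellular ATP was quantified by luminescence.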
uPA generation: inhibitors of cell surface uPA generation; cell surface uPA generation assay, qHTS; Potency, µM (titrated, usually from 38.3 µM), without a hit: top-dose activity change, negative = inhibition, usual class: inhibitors; 0.31% of 330,000 active; AID 540303; active = well fitted inhibition curve with a large enough effect; inconclusive = small, poorly fitted or top-dose-only effect; inactive = no such curve, though single readings can be large or run the other way; tested in mouse RAW 264.7 cells; also: potency is read from the fitted curve at half-maximal effect; % is scaled to controls: 0 for no effect and ±100 for the full control effect; nearly all actives have a fitted effect of over 55% in size
TDP1 inh: blocks human tyrosyl-DNA phosphodiesterase 1 | 0.28% of 350,000 active | Q9NUW8 | Potency, µM (series often up to 130 µM), for inactives: at the top dose activity change, negative = inhibition, actives largely listed as inhibitors | recombinant TDP1, AlphaScreen DNA substrate cleavage; also: potency is read from the fitted curve at half-maximal effect; % is scaled to controls: 0 for no effect and ±100 for the full control effect; nearly all actives have a fitted effect of over 40% in size
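Recombinant E. coli-expressed Tdp1 (1 nM) preincubated with compound 15 min at RT, then 5'-biotin/3'-phosphotyrosine-FITC DNA substrate (15 nM) added for 5 min. AlphaScreen beads (10 ug/ml) added, 10 min RT; tyrosine-FITC cleavage read as signal loss.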
Starred values were filed as active, the others as inactive; ? = inconclusive; nt = no result given; ! = not active in a repeat; [ ] = dose if it differs, or a comment. Rows were chosen to be rich in hits. Some 16% of all compounds tested hit in one or more screens of this group. Unless noted, calls follow the shape of the dose curve; as a rule, active = well fitted curve in the direction sought with a large enough effect; inconclusive = small, poorly fitted or top-dose-only effect, or another doubt; inactive = no such curve, though single readings can be large; an effect the other way counts as inactive or inconclusive.

nr	compound	miR-21 reporter	TDP1 cell CPT	TDP1 cell noCPT	uPA generation	TDP1 inh
1	CN1CCN(c2ncnc(Cl)c2N)CC1	-3.6%	23.8%	-5.1%	6.0%	2.5%
2	O=c1c2ccccc2nc(-c2ccccc2)n1-c1ccccc1O	12.9%	?	?	2.0%	2.5%
3	COc1ccccc1-n1c(-c2ccccc2)nc2ccccc2c1=O	4.8%	16.4µM*	?	5.3%	nt
4	COc1ccccc1-n1c(-c2cccs2)nc2ccccc2c1=O	11.3%	14.6µM*	13µM*	16.1%	3.6%
5	COc1ccc(-c2nc3ccccc3c(=O)n2-c2nccs2)cc1	-13.2%	?	?	-4.3%	6.8%
6	CC1CCN(C(=O)N2c3ccccc3Sc3ccccc32)CC1	12.8%	?	?	6.4%	3.5%
7	c1ccc2c(c1)Sc1ccccc1N2CC1CN2CCC1CC2 (stereo unspecified)	?	2.66µM*!	6.68µM*	3.2%	7.7%
8	Cc1cccc(-n2c(O)c(C=Nc3ccc(S(N)(=O)=O)cc3)c(=O)[nH]c2=O)c1	2.5%	-2.8%	0.0%	-0.6%	?

The final 5 compounds of the part before lead into the next.
nr	compound	miR-21 reporter	TDP1 cell CPT	TDP1 cell noCPT	uPA generation	TDP1 inh
4	COc1ccccc1-n1c(-c2cccs2)nc2ccccc2c1=O	11.3%	14.6µM*	13µM*	16.1%	3.6%
5	COc1ccc(-c2nc3ccccc3c(=O)n2-c2nccs2)cc1	-13.2%	?	?	-4.3%	6.8%
6	CC1CCN(C(=O)N2c3ccccc3Sc3ccccc32)CC1	12.8%	?	?	6.4%	3.5%
7	c1ccc2c(c1)Sc1ccccc1N2CC1CN2CCC1CC2 (stereo unspecified)	?	2.66µM*!	6.68µM*	3.2%	7.7%
8	Cc1cccc(-n2c(O)c(C=Nc3ccc(S(N)(=O)=O)cc3)c(=O)[nH]c2=O)c1	2.5%	-2.8%	0.0%	-0.6%	?
9	O=C(c1cc2cc(Cl)ccc2[nH]1)N1CCC2(CC1)OCCO2	-30.9%	18.4µM*	?	2.5%	3.0%
10	O=C(c1cc2cc(F)ccc2[nH]1)N1CCC2(CC1)OCCO2	-41.6%	?	?	8.0%	3.0%
11	O=c1[nH]c(=O)n(-c2ccc(Br)cc2)c(O)c1C=NC(CO)(CO)CO	-0.5%	-5.4%	-0.8%	0.6%	0.6%
12	CN1CCN(C(=O)COc2ccc(S(=O)(=O)Nc3ccc(F)cc3)cc2)CC1	0.1%	-10.3%	16.7%	0.8%	-1.1%
13	COc1ccc(NS(=O)(=O)c2ccc3c(c2)CCCN3C(=O)C2CCC2)cc1OC	29.2%	2.59µM*	3.66µM*	nt	1.1%
14	CC(=O)N1CCCc2cc(S(=O)(=O)N3CCCC(C(=O)N4CCN(c5ccccc5F)CC4)C3)ccc21 (stereo unspecified)	26.1%	3.66µM*	5.8µM*	nt	0.0%
15	CC(=O)N1CCc2cc(S(=O)(=O)N3CCN(c4ccc(C)cc4)C(C)C3)ccc21 (stereo unspecified)	7.0%	23.1µM*	20.6µM*	nt	-2.1%[12.3 µM]
16	Cn1c(=O)oc2cc(S(=O)(=O)N3CCCC(C(=O)Nc4ccccn4)C3)ccc21 (stereo unspecified)	0.2%	?	-13.1%	0.7%	0.0%
17	Cn1c(=O)oc2cc(S(=O)(=O)N3CCCC(C(=O)N4CCN(c5ccc(Cl)cc5)CC4)C3)ccc21 (stereo unspecified)	2.7%	5.17µM*	1.3µM*	nt	9.0%
18	Cc1c(C=C2C(=O)N(C)C(=S)N(C)C2=O)c2ccccc2n1CC(=O)NCC1CCCO1 (stereo unspecified)	-0.9%	?	?	3.5%	8.9%
19	CCN(C=C1CC2C3CC=C4CC(O)CCC4(C)C3CCC2(C)C1=O)CC (stereo unspecified)	nt	-2.0%	?	7.5%	nt
20	Cc1cc(OCC(=O)NC(Cc2ccc(Cl)cc2)C(=O)O)c2c3c(c(=O)oc2c1)CCC3 (stereo unspecified)	-4.6%	20.7%	-1.3%	1.3%	nt
21	COc1ccc(C(CNC(=O)c2cc(S(=O)(=O)N3CCCCC3)ccc2C)N2CCCC2)cc1 (stereo unspecified)	nt	?	?	2.3%	nt
22	COc1ccc(N2CCN(C(=O)C3CCCN(S(=O)(=O)c4ccc5c(c4)CCCN5C(C)=O)C3)CC2)cc1 (stereo unspecified)	?	4.11µM*	2.31µM*	nt	-1.1%
23	Nc1ccc2c(c1)oc1ccccc12	-47.5%	0.1%	-20.7%	-6.6%	2.1%
24	C[C@H]1O[C@@H](O[C@H]2[C@@H](O)C[C@H](O[C@H]3[C@@H](O)C[C@H](O[C@H]4CC[C@]5(C)C6CC[C@]7(C)[C@@H](C8=CC(=O)OC8)CC[C@]7(O)C6CC[C@@H]5C4)O[C@@H]3C)O[C@@H]2C)C[C@H](O)[C@@H]1O (stereo partly specified)	nt	0.335µM*	0.376µM*	nt	14.1%[56.1 µM]
25	CC1O[C@@H](O[C@@H]2C(O)C[C@H](O[C@@H]3C(O)C[C@@H](OC4CC[C@@]5(C)C6CC[C@]7(C)C(C8=CC(=O)OC8)CC[C@@]7(O)C6CC[C@@H]5C4)OC3C)OC2C)CC(O)[C@H]1O (stereo partly specified)	nt	1.03µM*	0.731µM*	nt	-5.1%[56.1 µM]
26	C[C@]12CC[C@H](O)C[C@H]1CC[C@@H]1[C@@H]2C[C@@H](O)[C@]2(C)[C@@H](C3=CC(=O)OC3)CC[C@]12O	nt	-13.2%	?	5.1%	nt
27	CO[C@H]1[C@@H](O)C[C@H](O[C@H]2[C@@H](O)C[C@H](O[C@H]3[C@@H](O)C[C@H](O[C@H]4CC[C@@]5(C)[C@H](CC[C@@H]6[C@@H]5C[C@@H](O)[C@]5(C)[C@@H](C7=CC(=O)OC7)CC[C@]65O)C4)O[C@@H]3C)O[C@@H]2C)O[C@@H]1C	nt	0.531µM*	0.376µM*	nt	nt
28	CC1OC(OC2C(O)CC(OC3C(O)CC(OC4CCC5(C)C(CCC6C5CCC5(C)C(C7=CC(=O)OC7)CCC65O)C4)OC3C)OC2C)CC(O)C1O (stereo unspecified)	nt	nt	nt	nt	2.1%
29	C[C@H]1O[C@@H](O[C@H]2[C@@H](O)C[C@@H](O[C@H]3[C@@H](O)C[C@H](O[C@H]4CC[C@@]5(C)[C@H](CC[C@@H]6[C@@H]5CC[C@]5(C)[C@@H](C7=CC(=O)OC7)CC[C@]65O)C4)O[C@@H]3C)O[C@@H]2C)C[C@H](O)[C@@H]1O	nt	0.316µM*	0.112µM*	nt	nt
30	Cc1ccc2c(=O)n(-c3cccc(Cl)c3)c(=O)[nH]c2c1	-5.4%	?	?	nt	-4.8%[12.3 µM]
31	CN1C2c3ccccc3C3C4c5ccccc5C(C31)C(C2[N+](=O)[O-])N4C (stereo unspecified)	3.7%	-7.9%	?	11.6%	0.0%
32	COc1ccc2c(c1)CCC1[C@@H]2CCC2(C)[C@@H](NCCCCCCN3C(=O)C=CC3=O)CC[C@@H]12 (stereo partly specified)	nt	?	?	nt	14.1%[56.1 µM]
33	c1ccc(N=Nc2ccccc2)cc1	nt	13.1%	4.7%	nt	6.2%
34	CCCCCCn1c(O)c(C=NCCN2CCOCC2)c(=O)[nH]c1=O	-1.9%	-6.3%	-25.8%	8.9%	1.3%
35	COc1ccc(CCN)cc1S(N)(=O)=O	nt	-3.3%	0.3%	nt	nt
36	Cc1cccc(Cn2cccc(C(=O)Nc3ccc(F)cc3F)c2=O)c1	7.3%	-26.1%	?	nt	2.6%
